Here are results for 28 molecules from PubChem BioAssay AID504891 (National Center for Advancing Translational Sciences (NCATS), 2011).

Amino acid sequences for entries named in this document (tags omitted).
UniProt Q13526, whole entry, looked up: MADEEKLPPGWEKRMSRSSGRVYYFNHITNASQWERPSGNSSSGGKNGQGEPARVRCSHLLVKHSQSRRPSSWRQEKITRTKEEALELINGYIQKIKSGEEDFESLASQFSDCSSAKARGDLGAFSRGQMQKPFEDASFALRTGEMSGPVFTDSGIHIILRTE

Molecules are shown by their SMILES. Only a part is listed here, and it is no random draw. Records with an inconclusive call do not appear. The source made the active and inactive calls. Calls follow the shape of the dose curve; as a rule, active = well fitted inhibition curve with a large enough effect in the polarisation, with a control signal flat (not every such curve was filed as active); inconclusive = small, poorly fitted or top-dose-only effect, or effect the other way, or a change in a side signal; inactive = no such curve, though single readings can be large or run the other way; the % refers to the polarisation.
% is scaled to controls: 0 for no effect and ±100 for the full control effect.

The test concerns the target Peptidyl-prolyl cis-trans isomerase NIMA-interacting 1 (Homo sapiens) (UniProt Q13526). The test is described as follows: qHTS Assay to Find Inhibitors of Pin1. The following applies: Pin1 FP peptide displacement, HiFluor488, 10 min; at 115 µM (top of the series).
For the molecule `CCC(C)N(CC(C)C)C(=S)SC(NC(C)=O)C(Cl)(Cl)Cl` (stereo not drawn), the activity, negative = inhibition was inactive: 2.52%.
Take `CCOP(=O)(Nc1cccc2cccnc12)OCC`: the activity, negative = inhibition was inactive: -4.41%.
In the case of `O=C(OC1CN2CCC1CC2)c1cccc([N+](=O)[O-])c1` (stereo not drawn), the activity, negative = inhibition was inactive: -6.9%.
Take `CCOC(=O)c1ccc(NC(=O)C(C)(CCl)SC)cc1` (stereo not drawn): the activity, negative = inhibition was inactive: -5.17%.
Regarding `O=C(COc1ccccc1)OC1CN2CCC1CC2` (stereo not drawn), the activity, negative = inhibition was inactive: -1.78%.
The value for `O=C(Nc1ccncc1[N+](=O)[O-])c1ccc([N+](=O)[O-])cc1[N+](=O)[O-]` was inactive: -3.31%.
`COP1(=S)c2c(C)nn(CCC#N)c2N=C(c2ccc(F)cc2)N1C` (stereo not drawn): the activity, negative = inhibition was inactive: -0.471%.
On to `Cc1cc(SC(NC=O)C(Cl)(Cl)Cl)ncn1` (stereo not drawn), for which the activity, negative = inhibition is inactive: -1.66%.
Take `O=P(Nc1ccccn1)(c1cccc2ccccc12)c1cccc2ccccc12`: the activity, negative = inhibition was inactive: -5.05%.
The value for `O=[N+]([O-])c1ccc(Nc2ccc(Oc3ccc([N+](=O)[O-])cc3[N+](=O)[O-])cc2)c([N+](=O)[O-])c1` was inactive: -3.16%.
Take `CCOC(=O)Nc1cccc([As](=O)(O)O)c1`: the activity, negative = inhibition is inactive: 4.41%.
Take `CCCCOc1ccc(C(=O)NCC2(N3CCCCC3)CCCCC2)cc1OC`: the activity, negative = inhibition was inactive: 6.41%.
For `Cc1cc(SC(NC(=O)c2ccccc2)C(Cl)(Cl)Cl)nc(C(C)C)n1` (stereo not drawn), the activity, negative = inhibition was inactive: -1.92%.
In the case of `CCOC(=O)Nc1ccc([As](=O)(O)O)c(O)c1`, the activity, negative = inhibition was inactive: -15.2%.
For `CC1CCNP(=O)(N(CCCl)CCCl)O1` (stereo not drawn), the activity, negative = inhibition is inactive: 1.57%.
On to `CC(C)NC(=O)NP(=O)(Oc1ccccc1)Oc1ccccc1`, for which the activity, negative = inhibition is inactive: 3.7%.
With `CCN(CC)C(=S)SC(NC=O)C(Cl)(Cl)Cl` (stereo not drawn), the activity, negative = inhibition is inactive: -6.15%.
As to `O=C(OC1CN2CCC1CC2)c1cccc2[nH]cnc12` (stereo not drawn), the activity, negative = inhibition was inactive: 1.52%.
As for `O=[N+]([O-])c1cc([N+](=O)[O-])c(-c2ccn[nH]2)s1`, the activity, negative = inhibition was inactive: -14.4%.
Take `ClCCSc1nnc(-c2cccnc2)o1`: the activity, negative = inhibition was inactive: -5.14%.
On to `COC(=O)C1(C)COP(=O)(N2CCCCCC2)OC1` (stereo not drawn), for which the activity, negative = inhibition was inactive: -2.19%.
On to `CC(C)c1ccc(OP(=O)(Nc2ccccn2)Oc2ccccc2F)cc1` (stereo not drawn), for which the activity, negative = inhibition was inactive: 0.376%.
Take `Cc1ccc(OP(=O)(Nc2ccc([N+](=O)[O-])cn2)Oc2ccc(C)cc2)cc1`: the activity, negative = inhibition was inactive: 0.749%.
`Cc1ccc2nc3c(c(C)c2c1)CC(C(Cl)Cl)S3` (stereo not drawn): the activity, negative = inhibition was inactive: 3.05%.
For the molecule `O=[As](O)(c1ccc(O)cc1)c1ccccc1O`, the activity, negative = inhibition was inactive: -0.905%.
Take `C[As](=O)(O)c1cccc(C(=O)O)c1`: the activity, negative = inhibition was inactive: 1.1%.
As for `COc1cc(C(=O)NCC2(N3CCOCC3)CCCCC2)ccc1OCC(C)C`, the figure is inactive: 3.16%.
The value for `O=[N+]([O-])c1cc(Oc2ccc([N+](=O)[O-])cc2C(F)(F)F)cc([N+](=O)[O-])c1` was inactive: -3.51%.
